The values that follow come from ChEMBL document CHEMBL1134932, “Bridged bicyclic vasopressin receptor antagonists with V(2)-selective or dual V(1a)/V(2) activity” (Bioorg Med Chem Lett, 2002).

By UniProt entry, the sequences of proteins in these tests, tags left out.
UniProt P30518, whole entry: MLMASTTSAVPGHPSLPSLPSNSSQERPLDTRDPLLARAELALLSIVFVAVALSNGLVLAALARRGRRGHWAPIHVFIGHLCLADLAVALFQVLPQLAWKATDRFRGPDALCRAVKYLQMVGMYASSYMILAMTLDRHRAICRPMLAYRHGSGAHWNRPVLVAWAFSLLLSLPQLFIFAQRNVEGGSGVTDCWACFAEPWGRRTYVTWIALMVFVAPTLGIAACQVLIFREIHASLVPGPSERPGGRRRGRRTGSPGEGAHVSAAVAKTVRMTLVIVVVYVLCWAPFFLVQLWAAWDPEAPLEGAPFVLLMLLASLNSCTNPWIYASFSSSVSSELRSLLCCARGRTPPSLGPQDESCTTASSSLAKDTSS

The test deals with Vasopressin V2 receptor (Homo sapiens, UniProt P30518). The test is described as follows: Inhibition of [3H]Arg-vasopressin binding to recombinant human vasopressin V2 receptor.

Regarding `O=C(Nc1ccc(C(=O)N2CC3C4CCC(CC4)N3Cc3ccccc32)cc1)c1ccccc1-c1ccccc1` (stereo unspecified), the IC50 worked out at 6 nM.

By IC50 is commonly meant the concentration at which inhibition is half-maximal.
